Our source for the cytotoxic activity and RBC toxicity values is paper PMC11969438, “Albumin-targeted oxaliplatin(IV) prodrugs bearing STING agonists” (Inorganic Chemistry Frontiers, 2025).

In data set [1] the test system is THP1-Dual, HCT116, HCT116/OxR and CT-26 cells. As to the kind of experiment: MTT-based cell viability assay, 72 h, statements over all investigated cell lines. Particulars: HCT116 and CT-26 cells. Also noted: species or system human and murine. As to the method: Cell models were seeded (2–2.5 × 10^3 cells per well) in 96-well plates. After 24 h of recovery, the compounds were applied at the concentrations indicated in triplicate. Cell viability was determined after 72 h of continuous drug incubation using an MTT-based cell viability assay (EZ4U, Biomedica, Vienna, Austria) according to the manufacturer's recommendations. Absorbance was measured at 450 nm (vs. 620 nm as reference) using a multimode microplate reader (Tecan Spark, Zurich, Switzerland). Half-maximal inhibitory concentrations (IC50 values) were derived via interpolation from dose–response curves, modeled with the four-parameter logistic (4PL) nonlinear regression model in GraphPad Prism (La Jolla, CA, USA) from at least three independent experiments. Drug interaction dynamics between oxaliplatin and MSA-2 were established using the ZIP synergy scoring model of SynergyFinder (v3.14).[53]

Data set [2] in a line: Hematological analysis after long-term treatment. Particulars: 72 h after the fourth dose. As to the method: Mice were kept in groups of four per cage with sterilized paper-based environmental enrichment and food and water ad libitum, under pathogen-free conditions and a controlled environment with a 12 h light–dark cycle. Syngeneic models of colorectal carcinoma were generated via subcutaneous injection of CT-26 cells (0.5 × 10^6 cells in 50 μL of serum-free RPMI-1640 medium) into the right flank of 8–12 weeks old BALB/c mice. […] All animals were euthanized 24 h after the second dose. […] To determine the anticancer efficacy of the investigated compounds, treatment started 4 d after tumor implantation, when all tumors were measurable (>25 mm^3) using a twice-weekly treatment scheme for two weeks. Tumor size was determined daily via manual caliper measurement. The tumor volume was calculated as tumor volume = (length × diameter × diameter)/2. The overall condition, shape, and activity of the animals were assessed daily. […]

For the compound `O=C1[O][Pt]2([NH][C@@H]3CCCC[C@H]3[NH]2)[O]C1=O` [oxaliplatin], in data set [1], the cytotoxic activity entry is reported as “low μM range”. Also, the RBC toxicity result in data set [2] was “Distinct RBC toxicity”.
